# Assay results as given in ChEMBL document CHEMBL1681711, “Discovery of a potent, orally bioavailable pyrimidine VLA-4 antagonist effective in a sheep asthma model” (Bioorg Med Chem Lett, 2011).
# By UniProt entry, the sequences of proteins in these tests, tags left out.
# UniProt P05556, whole entry: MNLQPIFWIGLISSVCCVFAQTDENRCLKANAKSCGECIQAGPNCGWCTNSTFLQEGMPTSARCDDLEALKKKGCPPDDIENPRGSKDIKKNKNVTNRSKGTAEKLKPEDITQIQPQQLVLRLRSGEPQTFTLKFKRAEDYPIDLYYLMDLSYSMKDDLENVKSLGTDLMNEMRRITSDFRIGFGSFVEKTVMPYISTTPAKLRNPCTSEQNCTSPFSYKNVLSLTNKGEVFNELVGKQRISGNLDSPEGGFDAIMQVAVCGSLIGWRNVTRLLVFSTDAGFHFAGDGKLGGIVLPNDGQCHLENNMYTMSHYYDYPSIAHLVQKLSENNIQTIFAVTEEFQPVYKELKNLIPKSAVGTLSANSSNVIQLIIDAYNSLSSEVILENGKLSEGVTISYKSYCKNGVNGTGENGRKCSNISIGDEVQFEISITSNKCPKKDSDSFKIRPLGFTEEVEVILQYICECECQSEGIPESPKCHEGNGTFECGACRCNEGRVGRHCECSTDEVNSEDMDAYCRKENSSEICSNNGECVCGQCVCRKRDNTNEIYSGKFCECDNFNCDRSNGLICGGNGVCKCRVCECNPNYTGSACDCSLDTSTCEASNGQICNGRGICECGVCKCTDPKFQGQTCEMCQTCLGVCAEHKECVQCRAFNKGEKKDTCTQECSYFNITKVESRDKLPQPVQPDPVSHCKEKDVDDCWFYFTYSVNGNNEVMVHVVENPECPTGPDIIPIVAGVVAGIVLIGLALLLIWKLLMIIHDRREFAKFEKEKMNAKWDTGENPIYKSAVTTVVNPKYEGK
# UniProt P13612, whole entry: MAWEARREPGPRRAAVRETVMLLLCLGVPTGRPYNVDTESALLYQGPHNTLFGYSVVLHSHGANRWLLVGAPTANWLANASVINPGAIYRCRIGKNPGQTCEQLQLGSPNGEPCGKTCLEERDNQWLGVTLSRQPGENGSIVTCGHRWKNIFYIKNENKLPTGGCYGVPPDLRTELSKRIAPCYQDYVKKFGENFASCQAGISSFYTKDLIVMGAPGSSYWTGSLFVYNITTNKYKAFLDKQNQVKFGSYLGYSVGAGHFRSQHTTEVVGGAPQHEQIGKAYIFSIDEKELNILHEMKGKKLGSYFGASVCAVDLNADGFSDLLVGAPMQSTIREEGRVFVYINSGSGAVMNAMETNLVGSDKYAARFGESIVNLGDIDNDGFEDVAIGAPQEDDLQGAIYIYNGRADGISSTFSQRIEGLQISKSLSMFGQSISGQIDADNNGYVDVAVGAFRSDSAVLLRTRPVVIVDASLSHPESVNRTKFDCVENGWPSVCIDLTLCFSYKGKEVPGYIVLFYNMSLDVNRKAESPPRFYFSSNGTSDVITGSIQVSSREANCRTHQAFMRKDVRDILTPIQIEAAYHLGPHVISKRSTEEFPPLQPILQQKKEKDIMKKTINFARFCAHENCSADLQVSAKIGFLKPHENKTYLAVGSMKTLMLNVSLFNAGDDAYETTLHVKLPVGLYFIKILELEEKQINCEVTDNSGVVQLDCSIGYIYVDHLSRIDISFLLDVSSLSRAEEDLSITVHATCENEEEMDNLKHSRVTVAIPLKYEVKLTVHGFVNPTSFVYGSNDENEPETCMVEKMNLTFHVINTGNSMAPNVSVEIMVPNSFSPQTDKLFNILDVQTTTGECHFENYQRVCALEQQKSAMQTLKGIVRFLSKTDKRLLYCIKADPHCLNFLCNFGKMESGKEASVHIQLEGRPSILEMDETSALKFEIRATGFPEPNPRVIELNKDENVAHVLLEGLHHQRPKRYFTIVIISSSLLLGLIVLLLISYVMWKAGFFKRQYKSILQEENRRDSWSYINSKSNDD
# Molecular target: Integrin alpha-4/beta-1 (Homo sapiens, UniProt P05556+P13612)
# Assay: Inhibition of integrin alpha4beta1-mediated Jurkat cell adhesion to VCAM-1 by FACS analysis
# Type: cell-based
# Outline: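 α4β1-positive Jurkat cells were incubated with recombinant soluble VCAM-1, and binding of this ligand was measured by flow cytometry (FACS).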
structure (smiles),measurement,value
CCN(CC)c1ncc(-c2c(C)noc2C)c(N[C@@H](Cc2ccc(OC(=O)N(C)C)cc2)C(=O)O)n1,IC50,< 1 nM
